These are literature values, as cited in patent US10736889B2, “Method of treating dyskinesia” (Rutgers, The State University of New Jersey, priority 2011, dated 2020).

Sequences of proteins named here, by UniProt entry; tags and fusion partners are left off.
UniProt P35372, whole entry: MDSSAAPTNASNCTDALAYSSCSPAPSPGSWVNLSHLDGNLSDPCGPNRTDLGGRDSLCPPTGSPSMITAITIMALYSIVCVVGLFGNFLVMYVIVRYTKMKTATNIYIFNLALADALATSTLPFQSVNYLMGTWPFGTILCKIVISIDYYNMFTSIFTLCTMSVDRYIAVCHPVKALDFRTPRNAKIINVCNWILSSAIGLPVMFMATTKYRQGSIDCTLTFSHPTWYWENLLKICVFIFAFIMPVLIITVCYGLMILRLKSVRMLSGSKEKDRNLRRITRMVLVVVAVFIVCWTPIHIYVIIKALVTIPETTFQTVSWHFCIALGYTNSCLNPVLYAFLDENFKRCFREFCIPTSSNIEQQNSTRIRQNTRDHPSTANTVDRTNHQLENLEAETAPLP

By Ki is commonly meant a measure of affinity in units of concentration, obtained from inhibition or displacement.

The data set concerns the target μ-opioid receptors (Homo sapiens, UniProt P35372). The settings on record: read-out: Ki for μ-opioid receptors.

Consider `CCC12CCN(CC3(O)CC3)C(Cc3ccc(O)cc31)C2(C)C` (stereo not shown) [Bremazocine], for which the inhibitory constant (Ki) is around 1.6 nM.
